SMILES strings stand for the structures.

The assay has as its system LNCaP. Nature of the assay: Antitumor activity against human LNCAP cells xenografted in immunocompromised mouse assessed as tumor growth inhibition at 30 mg/kg, ip for 5 days a week for 7 consecutive weeks relative to vehicle-treated control. For orientation: In xenograft studies the graft and the host belong to different species.

Take `ClCCN(CCCl)c1ccccc1`: the TGI – broadly, how far tumour growth fell short of that in controls – is 90%.

The record behind these values is ChEMBL document CHEMBL3351716, “Targeting the androgen receptor with steroid conjugates” (J Med Chem, 2014).
